Results taken from US8735357B2, “Method of inducing antigen-specific T cells” (International Institute of Cancer Immunology, Inc., priority 2001, dated 2014).

Test system: WT1-3LL cells
Experiment: Anti-tumor effects in mice transplanted subcutaneously with WT1-3LL cells
Assay type: in vivo, mouse
Protocol: 3LL cells, a lung cancer cell line derived from a C57/BL6 mouse, were transfected in the usual manner with a cDNA for mouse WT1, and WT1-3LL cells thereby obtained were used.
4) Transplantation of Tumor Cells and Schedule for Vaccination Into mice, 5×10^4 WT1-3LL cells were injected subcutaneously, and vaccination was started on the next day. Into flanks of the mice, 100 μg of Krestin was injected intradermally, and after 24 hours, 0.1 ml of a 2 mg/ml WT1 peptide (SEQ ID NO: 2) solution was injected intradermally at the same site. Taking these administrations as one course, three courses of vaccination were conducted in total, at intervals of one week. 2. Results

Q: For “Arg Met Phe Pro Asn Ala Pro Tyr Leu (RMFPNAPYL) [WT1 peptide, 9-mer cancer antigen peptide derived from WT1]”, which “engraftment of tumor cells observed” value (Day 18, 5×10^4 WT1-3LL cells s.c.) is on record?
A: Its value is “in all cases”.

Q: What about the “average tumor diameter compared with the group received Krestin and the WT1 peptide” value (Day 18 after tumor cell transplantation) of the same substance?
A: The value was “greater”.
